Target: GSK3α (Homo sapiens, UniProt P49840)
Experiment: biochemical

The chains behind the UniProt entries cited, without tags or fusion partners. Where a name states a change or a piece, a line headed by the entry shows the natural chain unless it says otherwise.
UniProt P49840: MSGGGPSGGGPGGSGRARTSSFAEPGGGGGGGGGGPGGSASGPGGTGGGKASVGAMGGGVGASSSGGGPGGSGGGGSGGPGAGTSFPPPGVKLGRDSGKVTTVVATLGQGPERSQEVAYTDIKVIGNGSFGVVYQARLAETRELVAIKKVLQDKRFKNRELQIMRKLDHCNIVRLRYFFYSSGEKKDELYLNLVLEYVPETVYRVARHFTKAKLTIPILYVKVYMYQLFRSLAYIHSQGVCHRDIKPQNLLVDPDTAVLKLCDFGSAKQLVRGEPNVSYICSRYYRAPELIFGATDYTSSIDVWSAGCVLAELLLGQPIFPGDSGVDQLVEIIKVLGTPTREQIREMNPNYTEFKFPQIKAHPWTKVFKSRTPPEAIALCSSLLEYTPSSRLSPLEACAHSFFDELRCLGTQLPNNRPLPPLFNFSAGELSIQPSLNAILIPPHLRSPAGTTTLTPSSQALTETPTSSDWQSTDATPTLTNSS

| IC50 [nM] | Compound |
| --- | --- |
| 360 | CC1(C)CC(=O)C2=C(C1)Nc1n[nH]cc1C2(C)c1ccccc1 (racemic) [Compound 107] |
| 53 | CC1(C)CC(=O)C2=C(C1)Nc1n[nH]cc1[C@]2(C)c1ccccc1 (stereo in doubt) [Compound 108] |
| 9840 | CC1(C)CC(=O)C2=C(C1)Nc1n[nH]cc1[C@@]2(C)c1ccccc1 (stereo in doubt) [Compound 109] |

Source: patent publication US20160375006A1 (published 2016)
